# Measurements reported in US20090099157A1, “TETRAHYDRO-PYRAZOLO-PYRIDINE THIOETHER MODULATORS OF CATHEPSIN S” (priority 2007, published 2009).
# The chains behind the UniProt entries cited, without tags or fusion partners. Residues count along the entry.
# UniProt P25774, 115-331: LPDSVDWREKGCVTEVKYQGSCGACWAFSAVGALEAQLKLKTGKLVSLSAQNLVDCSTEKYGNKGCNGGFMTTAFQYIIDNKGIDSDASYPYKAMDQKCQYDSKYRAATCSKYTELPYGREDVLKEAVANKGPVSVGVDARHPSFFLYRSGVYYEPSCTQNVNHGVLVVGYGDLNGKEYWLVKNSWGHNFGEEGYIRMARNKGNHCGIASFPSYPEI
# Target: Recombinant human cathepsin S (CatS) (Homo sapiens, UniProt P25774)
# Experiment: biochemical
row,Compound,IC50 [nM]
1,"CSCC(=O)N1CCc2c(c(-c3ccc(C(F)(F)F)c(SCCN4CCC(F)CC4)c3)nn2CC(O)CN2CCCCC2)C1 (centres unmarked) [Example 442, 1-{3-[3-{[2-(4-Fluoropiperidin-1-yl)ethyl]sulfanyl}-4-(trifluoromethyl)phenyl]-5-[(methylsulfanyl)acetyl]-4,5,6,7-tetrahydro-1H-pyrazolo[4,3-c]pyridin-1-yl}-3-piperidin-1-ylpropan-2-ol]",200
2,"CC1(C)CCN(C[C@H](O)Cn2nc(-c3ccc(C(F)(F)F)c(SCCN4CCCC(F)C4)c3)c3c2CCN(S(C)(=O)=O)C3)CC1 (stereo partly drawn) [Example 559, (2S)-1-(4,4-Dimethylpiperidin-1-yl)-3-{3-[3-{[2-(3-fluoropiperidin-1-yl)ethyl]sulfanyl}-4-(trifluoromethyl)phenyl]-5-(methylsulfonyl)-4,5,6,7-tetrahydro-1H-pyrazolo[4,3-c]pyridin-1-yl}propan-2-ol]",250
3,"CS(=O)(=O)N1CCc2c(c(-c3ccc(C(F)(F)F)c(SCCNC4CCCC4)c3)nn2CC(O)CN2CCCC2)C1 (centres unmarked) [Example 325, 1-{3-[3-{[2-(Cyclopentylamino)ethyl]sulfanyl}-4-(trifluoromethyl)phenyl]-5-(methylsulfonyl)-4,5,6,7-tetrahydro-1H-pyrazolo[4,3-c]pyridin-1-yl}-3-pyrrolidin-1-ylpropan-2-ol]",360
4,"CC1CCN(CCSc2cc(-c3nn(C[C@@H](O)CN4CCCCCC4)c4c3CN(S(C)(=O)=O)CC4)ccc2C(F)(F)F)CC1 [Example 445, (2S)-1-Azepan-1-yl-3-{3-[3-{[2-(4-methylpiperidin-1-yl)ethyl]sulfanyl}-4-(trifluoromethyl)phenyl]-5-(methylsulfonyl)-4,5,6,7-tetrahydro-1H-pyrazolo[4,3-c]pyridin-1-yl}propan-2-ol]",280
5,"CS(=O)(=O)N1CCc2c(c(-c3ccc(C(F)(F)F)c(SCCNC(=O)Cc4ccccc4)c3)nn2CC(O)CN2CCC(N3CCCC3=O)CC2)C1 (centres unmarked) [Example 115, N-{2-[5-(1-{2-Hydroxy-3-[4-(2-oxo-pyrrolidin-1-yl)-piperidin-1-yl]-propyl}-5-methanesulfonyl-4,5,6,7-tetrahydro-1H-pyrazolo[4,3-c]pyridin-3-yl)-2-trifluoromethyl-phenylsulfanyl]-ethyl}-2-phenyl-acetamide]",130
6,"O=C(CSc1cc(-c2nn(CC(O)CN3CCC(N4CCCC4=O)CC3)c3c2CNCC3)ccc1C(F)(F)F)N1CCOCC1 (centres unmarked) [Example 267, 1-{1-[2-Hydroxy-3-(3-{3-[(2-morpholin-4-yl-2-oxoethyl)sulfanyl]-4-(trifluoromethyl)phenyl}-4,5,6,7-tetrahydro-1H-pyrazolo[4,3-c]pyridin-1-yl)propyl]piperidin-4-yl}pyrrolidin-2-one]",410
7,"CS(=O)(=O)N1CCc2c(c(-c3ccc(C(F)(F)F)c(SCCN4CCC(F)CC4)c3)nn2CC(O)CN2CCC(C(=O)N3CCOCC3)CC2)C1 (centres unmarked) [Example 854, 1-{3-[3-{[2-(4-Fluoropiperidin-1-yl)ethyl]sulfanyl}-4-(trifluoromethyl)phenyl]-5-(methylsulfonyl)-4,5,6,7-tetrahydro-1H-pyrazolo[4,3-c]pyridin-1-yl}-3-[4-(morpholin-4-ylcarbonyl)piperidin-1-yl]propan-2-ol]",130
8,"O=C(CSc1cc(-c2nn(CC(O)CN3CCC4(CC3)OCCO4)c3c2CNCC3)ccc1C(F)(F)F)N1CCCC1 (centres unmarked) [Example 318, 1-(1,4-Dioxa-8-azaspiro[4.5]dec-8-yl)-3-(3-{3-[(2-oxo-2-pyrrolidin-1-ylethyl)sulfanyl]-4-(trifluoromethyl)phenyl}-4,5,6,7-tetrahydro-1H-pyrazolo[4,3-c]pyridin-1-yl)propan-2-ol]",1440
9,"CS(=O)(=O)N1CCc2c(c(-c3ccc(C(F)(F)F)c(SCCNCCOc4ccccc4)c3)nn2CCCN2CCC(N3CCCC3=O)CC2)C1 [Example 47, 1-{1-[3-(5-Methanesulfonyl-3-{3-[2-(2-phenoxy-ethylamino)-ethylsulfanyl]-4-trifluoromethyl-phenyl}-4,5,6,7-tetrahydro-pyrazolo[4,3-c]pyridin-1-yl)-propyl]-piperidin-4-yl}-pyrrolidin-2-one]",660
10,"CS(=O)(=O)N1CCc2c(c(-c3ccc(C(F)(F)F)c(SCCN4CCC(F)CC4)c3)nn2C[C@H](O)CN2CCN(c3ncccc3Cl)CC2)C1 [Example 852, (2R)-1-[4-(3-Chloropyridin-2-yl)piperazin-1-yl]-3-{3-[3-{[2-(4-fluoropiperidin-1-yl)ethyl]sulfanyl}-4-(trifluoromethyl)phenyl]-5-(methylsulfonyl)-4,5,6,7-tetrahydro-1H-pyrazolo[4,3-c]pyridin-1-yl}propan-2-ol]",15
11,"N#Cc1ccc(C2CCN(C[C@H](O)Cn3nc(-c4ccc(C(F)(F)F)c(SCCN5CCC(F)CC5)c4)c4c3CCNC4)CC2)cc1 [Example 533, 4-{1-[(2S)-3-{3-[3-{[2-(4-Fluoropiperidin-1-yl)ethyl]sulfanyl}-4-(trifluoromethyl)phenyl]-4,5,6,7-tetrahydro-1H-pyrazolo[4,3-c]pyridin-1-yl}-2-hydroxypropyl]piperidin-4-yl}benzonitrile]",95
12,"CS(=O)(=O)N1CCc2c(c(-c3ccc(C(F)(F)F)c(SCCN4CCCC4)c3)nn2CC(O)CN2CC[C@H](CO)C2)C1 (stereo partly drawn) [Example 350, 1-[(3S)-3-(Hydroxymethyl)pyrrolidin-1-yl]-3-[5-(methylsulfonyl)-3-{3-[(2-pyrrolidin-1-ylethyl)sulfanyl]-4-(trifluoromethyl)phenyl}-4,5,6,7-tetrahydro-1H-pyrazolo[4,3-c]pyridin-1-yl]propan-2-ol]",2320
13,"CS(=O)(=O)N1CCc2c(c(-c3ccc(C(F)(F)F)c(SCC(=O)N4CCC(N5CCCCC5)CC4)c3)nn2CCCN2CCC(N3CCCC3=O)CC2)C1 [Example 89, 1-[1-(3-{3-[3-(2-[1,4′]Bipiperidinyl-1′-yl-2-oxo-ethylsulfanyl)-4-trifluoromethyl-phenyl]-5-methanesulfonyl-4,5,6,7-tetrahydro-pyrazolo[4,3-c]pyridin-1-yl}-propyl)-piperidin-4-yl]-pyrrolidin-2-one]",490
14,"CS(=O)(=O)N1CCc2c(c(-c3ccc(C(F)(F)F)c(SCC(=O)N4CCOCC4)c3)nn2CCCN2CCC(C(F)(F)F)CC2)C1 [Example 111, 2-(5-{5-Methanesulfonyl-1-[3-(4-trifluoromethyl-piperidin-1-yl)-propyl]-4,5,6,7-tetrahydro-1H-pyrazolo[4,3-c]pyridin-3-yl}-2-trifluoromethyl-phenylsulfanyl)-1-morpholin-4-yl-ethanone]",240
15,"CS(=O)(=O)N1CCc2c(c(-c3ccc(Cl)c(SCc4ccccc4)c3)nn2CCCN2CCOCC2)C1 [Example 128, 3-(3-Benzylsulfanyl-4-chloro-phenyl)-5-methanesulfonyl-1-(3-morpholin-4-yl-propyl)-4,5,6,7-tetrahydro-1H-pyrazolo[4,3-c]pyridine]",1650
16,"CC(=O)N1CCc2c(c(-c3ccc(C(F)(F)F)c(SCCN4CCCCC4)c3)nn2CC(O)CN2CCC(N3CCCC3=O)CC2)C1 (centres unmarked) [Example 246, 1-{1-[3-(5-Acetyl-3-{3-[(2-piperidin-1-ylethyl)sulfanyl]-4-(trifluoromethyl)phenyl}-4,5,6,7-tetrahydro-1H-pyrazolo[4,3-c]pyridin-1-yl)-2-hydroxypropyl]piperidin-4-yl}pyrrolidin-2-one]",190
17,"CS(=O)(=O)N1CCc2c(c(-c3ccc(C(F)(F)F)c(SCCNC(=O)Cc4ccc(F)cc4)c3)nn2CC(O)CN2CCC(N3CCCC3=O)CC2)C1 (centres unmarked) [Example 121, 2-(4-Fluoro-phenyl)-N-{2-[5-(1-{2-hydroxy-3-[4-(2-oxo-pyrrolidin-1-yl)-piperidin-1-yl]-propyl}-5-methanesulfonyl-4,5,6,7-tetrahydro-1H-pyrazolo[4,3-c]pyridin-3-yl)-2-trifluoromethyl-phenylsulfanyl]-ethyl}-acetamide]",280
18,"CC1(C)CCN(CC(O)Cn2nc(-c3ccc(C(F)(F)F)c(SCC(=O)N4CCCC4)c3)c3c2CCNC3)CC1 (centres unmarked) [Example 300, 1-(4,4-Dimethylpiperidin-1-yl)-3-(3-{3-[(2-oxo-2-pyrrolidin-1-ylethyl)sulfanyl]-4-(trifluoromethyl)phenyl}-4,5,6,7-tetrahydro-1H-pyrazolo[4,3-c]pyridin-1-yl)propan-2-ol]",3150
19,"CS(=O)(=O)N1CCc2c(c(-c3ccc(Cl)c(SCc4ccc(Cl)cc4)c3)nn2CCCN2CCOCC2)C1 [Example 135, 3-[4-Chloro-3-(4-chloro-benzylsulfanyl)-phenyl]-5-methanesulfonyl-1-(3-morpholin-4-yl-propyl)-4,5,6,7-tetrahydro-1H-pyrazolo[4,3-c]pyridine]",350
20,"CN1CCCN(C(=O)CSc2cc(-c3nn(CCCN4CCC(N5CCCC5=O)CC4)c4c3CN(S(C)(=O)=O)CC4)ccc2C(F)(F)F)CC1 [Example 96, 1-{1-[3-(5-Methanesulfonyl-3-{3-[2-(4-methyl-[1,4]diazepan-1-yl)-2-oxo-ethylsulfanyl]-4-trifluoromethyl-phenyl}-4,5,6,7-tetrahydro-pyrazolo[4,3c]pyridin-1-yl)-propyl]-piperidin-4-yl}-pyrrolidin-2-one]",420
21,"O=C(CO)N1CCc2c(c(-c3ccc(C(F)(F)F)c(SCCN4CCCCC4)c3)nn2CC(O)CN2CCC(c3ccccn3)CC2)C1 (centres unmarked) [Example 599, 1-[5-(Hydroxyacetyl)-3-{3-[(2-piperidin-1-ylethyl)sulfanyl]-4-(trifluoromethyl)phenyl}-4,5,6,7-tetrahydro-1H-pyrazolo[4,3-c]pyridin-1-yl]-3-(4-pyridin-2-ylpiperidin-1-yl)propan-2-ol]",10
22,"CS(=O)(=O)N1CCc2c(c(-c3ccc(C(F)(F)F)c(SCC(=O)Nc4ccc(F)cc4)c3)nn2CCCN2CCC(N3CCCC3=O)CC2)C1 [Example 84, N-(4-Fluoro-phenyl)-2-[5-(5-methanesulfonyl-1-{3-[4-(2-oxo-pyrrolidin-1-yl)-piperidin-1-yl]-propyl}-4,5,6,7-tetrahydro-1H-pyrazolo[4,3-c]pyridin-3-yl)-2-trifluoromethyl-phenylsulfanyl]-acetamide]",420
23,"CS(=O)(=O)N1CCc2c(c(-c3ccc(C(F)(F)F)c(SCCN4CCCC(c5ccccc5)C4)c3)nn2CCCN2CCC(N3CCCC3=O)CC2)C1 (centres unmarked) [Example 864, 1-[1-(3-{5-(Methylsulfonyl)-3-[3-{[2-(3-phenylpiperidin-1-yl)ethyl]sulfanyl}-4-(trifluoromethyl)phenyl]-4,5,6,7-tetrahydro-1H-pyrazolo[4,3-c]pyridin-1-yl}propyl)piperidin-4-yl]pyrrolidin-2-one]",330
